Bioassay records: PubChem BioAssay, several laboratories
In the library only some 2.1% were active in any assay of this set; here they are far more common.
SMARCA2 activ: activators of SMARCA2 function | MG213 cells, MMTV-luciferase reporter, dexamethasone, overnight | activation, % at 9.1 µM | 370,000 compounds, 1% hits | AID 652017; in the data active = activation above about 7.8%
Yeast UUG start: modulators of start codon recognition fidelity in yeast; AID 602363; activity score, % at 18.7 µM; S. cerevisiae UUG-firefly luciferase reporter, luminescence/redox ratio; actives 0.13% (n = 350,000);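 active = replicate mean at a twofold rise or more, about +100% in these data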;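 note: firefly luciferase made from a UUG start codon reports start codon fidelity; reporter light over untreated wells divided by growth signal over untreated wells; some hits fall short of that in this replicate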
ERp5 block: ERp5 (human) disulfide isomerase inhibition | 350,000 compounds, 0.05% hits | ERp5 insulin aggregation, absorbance 650 nm, 90 min | inhibition, % at 9.99 µM;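 active = mean replicate inhibition above about 25%, with every replicate also reaching it, limit read from the data, passing the limit was not always enough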
GSIS activator: primary screen for activators of insulin secretion dependent on glucose, INS-1E cells, GLuc reporter luminescence. AID 743287. 370,000 compounds, 0.61% hits. activation, % at 16.6 µM. INS-1E GLuc reporter insulin secretion, 2-3 h;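 active = lowest replicate activation of at least 40%, so every replicate reaches that level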
Rev-erbA mod: modulators of human Rev-erb alpha DNA binding | 370,000 compounds, 0.79% hits | P20393 | activity, % at 10 µM | Rev-erbα–FITC-DNA binding, fluorescence polarization, 90 min | AID 1259318;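 active = activity above about 14%, limit read from the data; passing the limit was not always enough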
PDI turbidity: blocks human protein disulfide isomerase activity; P07237; PDI insulin aggregation turbidity, A650, 90 min; 350,000 compounds, 0.052% hits; inhibition, % at 10 µM;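 active = mean inhibition across replicates of 30% or more, whatever share of single replicates reach that level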
SMARCA2 act conf: SMARCA2 activation, confirmation screen; shares compounds with SMARCA2 activ; MG213 cells, MMTV-luciferase with dexamethasone, luminescence, overnight; MG213 cells expressing E1A, Rb sequestered; DMSO wells 0%, reference activator 100%; activation, % at 9.1 µM; 3,500 compounds, 30% hits; AID 652260;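 active = activation above its plate's cutoff, the mean activation of tested wells plus 3 SD, cut at about 7.9% in these data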
VP16 Luc act: GAL4-VP16 reporter activation counter-screen | shares compounds with SMARCA2 activ | HEK293 GAL4-VP16 pG5luc reporter, luciferase luminescence; scaled: DMSO wells 0%, SAHA wells 100% | 3,500 compounds, 41% hits | activation, % at 9.1 µM | AID 686939;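 active = activation above the solvent-only control well mean plus 3 SD, averaged across control plates, cut at about 5.2% in these data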
A number is an active result.

What do the screens show for `C[C@@H]1CN([C@@H](C)CO)C(=O)c2cc(-c3ccc(C#N)cc3)cnc2O[C@@H]1CN(C)C(=O)CN(C)C`?
Yeast UUG start: inactive; ERp5 block: inactive; GSIS activator: inactive

What do the screens show for `Cc1ccc(Cn2nnnc2CN2CCC(O)(c3ccc(F)cc3)CC2)cc1`?
SMARCA2 activ: 11; Yeast UUG start: inactive; ERp5 block: inactive; GSIS activator: inactive; Rev-erbA mod: inactive; PDI turbidity: inactive; SMARCA2 act conf: inactive; VP16 Luc act: inactive

How did Cc1noc(C)c1NC(=O)Nc1ccc2c(c1)C(=O)N([C@@H](C)CO)C[C@@H](C)[C@@H](CN(C)C(=O)NC(C)C)O2 do in these assays?
Yeast UUG start: inactive; ERp5 block: inactive; GSIS activator: inactive

How did C[C@H]1CN([C@@H](C)CO)C(=O)c2cc(-c3cccnc3)cnc2O[C@H]1CN(C)C(=O)Nc1ccccc1 do in these assays?
ERp5 block: inactive; GSIS activator: inactive

Results for CN1CCN(S(=O)(=O)c2ccc(NC(=O)c3ccc(Br)o3)cc2)CC1 ?
SMARCA2 activ: 8.2; Yeast UUG start: inactive; Rev-erbA mod: inactive; PDI turbidity: inactive; SMARCA2 act conf: inactive; VP16 Luc act: inactive

What do the screens show for `CC(C)[C@H](CO)Nc1nc(NCc2ccc(S(N)(=O)=O)cc2)c2ncn(C(C)C)c2n1`?
SMARCA2 activ: 10; Yeast UUG start: inactive; ERp5 block: inactive; GSIS activator: inactive; Rev-erbA mod: inactive; PDI turbidity: inactive; SMARCA2 act conf: 7.9; VP16 Luc act: inactive

Results for O=C(C[C@H]1C=C[C@H](NS(=O)(=O)c2ccc(F)cc2)[C@@H](CO)O1)NCCN1CCCCC1 ?
Yeast UUG start: inactive; ERp5 block: inactive; GSIS activator: inactive

Results for O=C(Nc1ccccc1C(=O)NCCc1ccccc1)c1ccco1 ?
SMARCA2 activ: 9.1; GSIS activator: inactive; Rev-erbA mod: inactive; PDI turbidity: inactive; SMARCA2 act conf: 11; VP16 Luc act: 7.4

Results for COc1ccc(NC(=O)Nc2ccc3c(c2)C(=O)N([C@H](C)CO)C[C@H](C)[C@H](CN(C)C)OCCCC[C@H](C)O3)cc1 ?
Yeast UUG start: inactive; ERp5 block: inactive; GSIS activator: inactive

What do the screens show for `CCCNC(=O)C[C@H]1C[C@@H]2c3cc(NS(=O)(=O)c4ccc(OC)cc4)ccc3O[C@@H]2[C@H](CO)O1`?
Yeast UUG start: inactive; GSIS activator: inactive

Results for Cc1cccc2nc(CSc3ccc(Cl)cc3)cn12 ?
SMARCA2 activ: 10; Yeast UUG start: inactive; ERp5 block: inactive; GSIS activator: inactive; Rev-erbA mod: inactive; PDI turbidity: inactive; SMARCA2 act conf: inactive; VP16 Luc act: inactive

How did Cc1ccc(SCc2cn3c(C)csc3n2)cc1 do in these assays?
SMARCA2 activ: 10; Yeast UUG start: inactive; ERp5 block: inactive; GSIS activator: inactive; Rev-erbA mod: inactive; PDI turbidity: inactive; SMARCA2 act conf: inactive; VP16 Luc act: 8.8

What do the screens show for `Clc1ccc(SCc2cn3ccccc3n2)cc1`?
SMARCA2 activ: inactive; ERp5 block: inactive; GSIS activator: inactive; Rev-erbA mod: inactive; PDI turbidity: inactive

How did C[C@H]1CN([C@@H](C)CO)C(=O)c2cc(NC(=O)Cn3cnnn3)ccc2O[C@@H]1CN(C)S(C)(=O)=O do in these assays?
Yeast UUG start: inactive; ERp5 block: inactive; GSIS activator: inactive

How did C[C@@H]1CN([C@@H](C)CO)C(=O)Cc2cc(NC(=O)Nc3cccc4ccccc34)ccc2O[C@H]1CN(C)C(=O)Nc1ccc(C(F)(F)F)cc1 do in these assays?
Yeast UUG start: inactive; ERp5 block: inactive; GSIS activator: inactive

What do the screens show for `C[C@@H]1CN([C@H](C)CO)C(=O)c2cccc(NS(=O)(=O)c3cccs3)c2O[C@@H]1CN(C)Cc1ccc(-c2ccccc2)cc1`?
Yeast UUG start: inactive; ERp5 block: inactive; GSIS activator: inactive

How did CC(=O)Nc1cc(C(=O)OCC(=O)c2ccccc2)ccc1C do in these assays?
SMARCA2 activ: 8.3; Yeast UUG start: inactive; GSIS activator: inactive; Rev-erbA mod: inactive; PDI turbidity: inactive; SMARCA2 act conf: inactive; VP16 Luc act: 10

How did Cc1ccc(C(=O)OCC(=O)c2ccccc2)cc1 do in these assays?
SMARCA2 activ: inactive; Yeast UUG start: inactive; ERp5 block: inactive; GSIS activator: inactive; Rev-erbA mod: inactive; PDI turbidity: inactive

What do the screens show for `CC=Cc1ccc2n(c1=O)C[C@@H]1[C@@H](CO)[C@H](C(=O)NCC3CC3)[C@H]2N1CCC(F)(F)F` (mixture of isomers)?
ERp5 block: inactive; GSIS activator: inactive

How did CCOC(=O)c1cnc2c(N=Nc3cccc(Cl)c3)c(N)nn2c1N do in these assays?
SMARCA2 activ: inactive; GSIS activator: inactive; Rev-erbA mod: inactive

What do the screens show for `CCOC(=O)c1cnc2c(N=Nc3ccccc3)c(N)nn2c1N`?
SMARCA2 activ: 8.3; Rev-erbA mod: inactive; PDI turbidity: inactive; SMARCA2 act conf: 11; VP16 Luc act: 12

What do the screens show for `COc1ccc(NC(=O)Nc2ccc3c(c2)C(=O)N([C@@H](C)CO)C[C@H](C)[C@H](CN(C)S(=O)(=O)c2ccc(Cl)cc2)OCCCC[C@@H](C)O3)cc1`?
Yeast UUG start: inactive; ERp5 block: inactive; GSIS activator: inactive

Results for Cc1nnc(NCc2ccco2)s1 ?
SMARCA2 activ: inactive; Yeast UUG start: inactive; Rev-erbA mod: inactive; PDI turbidity: inactive

What do the screens show for `COc1ccc(-c2csc(NCc3ccco3)n2)cc1`?
SMARCA2 activ: 9.2; Rev-erbA mod: inactive; PDI turbidity: inactive; SMARCA2 act conf: 9.5; VP16 Luc act: 13

Results for c1coc(CNc2nc3ccccc3s2)c1 ?
SMARCA2 activ: 9.7; Yeast UUG start: inactive; ERp5 block: inactive; GSIS activator: inactive; Rev-erbA mod: inactive; PDI turbidity: inactive; SMARCA2 act conf: 15; VP16 Luc act: 12

Results for CC(C)NC(=O)Nc1ccc2c(c1)C(=O)N([C@H](C)CO)C[C@H](C)[C@H](CN(C)S(=O)(=O)c1cn(C)cn1)OCCCC[C@H](C)O2 ?
Yeast UUG start: inactive; ERp5 block: inactive; GSIS activator: inactive

Results for C[C@H]1CCCCO[C@@H](CN(C)C(=O)Nc2ccccc2)[C@@H](C)CN([C@@H](C)CO)C(=O)c2cc(NS(=O)(=O)c3ccc(F)cc3)ccc2O1 ?
GSIS activator: inactive

Results for C[C@H](CO)N1C[C@H](C)[C@@H](CN(C)S(=O)(=O)c2cn(C)cn2)Oc2cc(C3=CCCC3)ccc2S1(=O)=O ?
Yeast UUG start: inactive; ERp5 block: inactive; GSIS activator: inactive
